{"source": "paper PMC7948648", "about": "(The Journal of Biological Chemistry, 2021)", "molecular_target": "T1, ART domain of TNKS1 (residues 1104–1314) (Homo sapiens, UniProt O95271)", "T1 construct": "biotinylated TNKS1 protein (amino acids: 1104–1314); hexahistidine (N, cleaved yes); made in house; host or cells: Escherichia coli BL21(DE3)", "T1 sequence (O95271 1104-1314)": "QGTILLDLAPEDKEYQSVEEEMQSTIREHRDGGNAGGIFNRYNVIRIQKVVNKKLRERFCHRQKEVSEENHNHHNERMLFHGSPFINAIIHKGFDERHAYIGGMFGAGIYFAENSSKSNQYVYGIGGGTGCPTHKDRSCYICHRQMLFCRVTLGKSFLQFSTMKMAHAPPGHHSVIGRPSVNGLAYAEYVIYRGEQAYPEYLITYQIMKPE", "experiment": "SPR binding kinetics to TNKS1 ART domain", "conditions": "150 mM NaCl, pH 7.4, 25 °C, read-out: TNKS1 Kin. KD", "data": [{"smiles": "NC(=O)c1cccc2cn(-c3ccc([C@@H]4CCCNC4)cc3)nc12", "note": "[Niraparib, niraparib]", "values": [{"measurement": "Kd", "value": 34.8, "unit": "µM"}]}]}
